Values joined by “and” are separate entries in the source; they are usually repeats but may differ in a detail not shown here. Equal entries are not always repeated. This is a selection; strong and weak results do not stand in their true shares.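 How to read the values: 0–100, growth inhibition (40 = 60% inhibited); 0, no net growth; -100 to 0, cell death (-40 = 40% of starting cells died; -100 = all dead).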 Active and inactive are the calls of the source. The calls were made as follows: active = growth percent below 10; inactive = the rest.
Test system: BT-549 breast
Assay: NCI-60 one-dose screen, 48 h (100 = growth as untreated, 0 = no growth, -100 = all killed)
Settings: 10 µM unless noted

Structure (SMILES) | growth
CC1CCNP(=O)(N(CCCl)CCCl)O1 (stereo not drawn) | inactive: 120%
CCN(CCCl)CC1OC(O)C(O)C1O (stereo not drawn) | inactive: 106%
CN(CCCl)/N=N/c1nc2nc[nH]c(=O)c2[nH]1 | inactive: 95.4%
Nc1ccc(N(CCCl)CCCl)cc1 | inactive: 84.3%
c1cc(-c2nn[nH]n2)ccc1-c1nn[nH]n1 | inactive: 109%
CCCC1OP(N)(=O)OCC1CC (stereo not drawn) | inactive: 106% and inactive: 95%
CCOP(=S)(OCC)OCC | inactive: 100%
CCOP(=S)(OCC)SCCCl | inactive: 106%
CN(C)P1(Cl)=NP(Cl)(N(C)C)=NP(Cl)(N(C)C)=N1 (stereo not drawn) | inactive: 90.2%
Nc1ccc(CCCCOc2ccccc2)cc1 | inactive: 66%
O=[N+]([O-])c1cccc(Oc2ccc([N+](=O)[O-])cc2[N+](=O)[O-])c1 | inactive: 30.1%
CCN(CC)[P+](c1ccc(OC)cc1OC)(N(CC)CC)N(CC)CC | inactive: 27.1%
O=C(Nc1ccc([N+](=O)[O-])cc1)N(CCBr)CCBr | inactive: 97.7%
O=P1(N(CCCl)CCCl)Nc2ccccc2N1 | inactive: 116%
ClCCNCc1ccccc1 | inactive: 114%
O=C(O)/C=C\c1cccc(N(CCCl)CCCl)c1 | inactive: 103%
O=C(O[C@H]1CN2CCC1CC2)C1NCc2ccccc2[C@@H]1c1ccccc1 (stereo partly drawn) | inactive: 96.5%
CC(=O)Nc1ccc([As](=O)(O)O)c(O)c1 | inactive: 84.9%
ClCCN1CCNCC1 | inactive: 105%

Structure (SMILES) | growth
Cc1cc([N+](=O)[O-])cc([N+](=O)[O-])c1O | inactive: 108%
O=C(OC1CN2CCC1CC2)c1ccccc1 (stereo not drawn) | inactive: 114%
O=C(c1ccc([N+](=O)[O-])cc1)N(CCCl)CCCl | inactive: 102%
CCCCCCCCCCNP(=S)(Cl)Cl | inactive: 108%
COc1cc([N+](=O)[O-])c(Nc2ccc(Cl)cc2[N+](=O)[O-])c([N+](=O)[O-])c1 | active: 3.56%
O=[As]c1ccc(S(=O)(=O)Nc2ccccc2)cc1 (stereo not drawn) | inactive: 21.1%
Cc1ccc(S(=O)(=O)CN(CCCl)CCCl)cc1 | inactive: 109%
CCCN(CCCl)C1c2ccccc2-c2ccccc21 | inactive: 93.2%
CC(Cl)CN(CC(C)Cl)C(=O)c1ccccc1 (stereo not drawn) | inactive: 101%
CC(Cl)CN(CC(C)Cl)C(=O)OCC(N)C(=O)O (stereo not drawn) | inactive: 101%
C[As](=O)(O)c1cccc(C(=O)O)c1 | inactive: 102%
Cc1ccc(S(=O)(=O)N(CCCN)CCCc2c(C)nc(N)[nH]c2=O)cc1 | inactive: 98.1%
Cn1c(COc2ccc([N+](=O)[O-])cc2[N+](=O)[O-])cnc1[N+](=O)[O-] | inactive: 90.5%
O=[N+]([O-])c1ccc(CCCCCCc2ccc([N+](=O)[O-])cc2[N+](=O)[O-])c([N+](=O)[O-])c1 | inactive: 91.8%
CCSC(O)C(Cl)(Cl)Cl (stereo not drawn) | inactive: 115%
O=[N+]([O-])c1cc(Cl)cc([N+](=O)[O-])c1O | inactive: 111%
OP1OCCO1 | inactive: 105%
N#CC(C#N)=C(C#N)N(CCCl)CCCl | inactive: 116%
CC[C@H](C)[C@@H]1NC(=O)/C(=C(\C)O)C1=O | inactive: 95.4%

Reference: PubChem BioAssay (NCI)
